Like-named read-outs stand apart in the source and are kept apart here.
Assays:
ErbB2 (HER2) = ErbB2 (HER2) (Homo sapiens, UniProt P04626); type: biochemical
ErbB2 = settings: cited from earlier work
ErbB4 = settings: cited from earlier work
Huh7 cells = settings: human
in vitro = settings: human, Huh7 cell viability (%)

SMILES: CS(=O)(=O)CCNCc1ccc(-c2ccc3ncnc(Nc4ccc(OCc5cccc(F)c5)c(Cl)c4)c3c2)o1 [Lapatinib]
- anti-ErbB2 activity (ErbB2 (HER2)): confirmed its anti-ErbB2 activity
- % of control, ErbB2 (ErbB2): 35.1 nM 0%
- % of control, ErbB4 (ErbB4): 10.8 nM 0.2%

SMILES: CNc1ccc2oc(C[C@H]3O[C@@]4(CC[C@H]3C)O[C@H]([C@H](C)C(=O)c3ccc[nH]3)[C@H](C)C[C@H]4C)nc2c1C(=O)O [Calcimycin]
- Huh7 cell viability (%) (Huh7 cells; 0.37 µM): 97.49%

SMILES: COc1ccc2cc1Oc1ccc(cc1)C[C@H]1c3cc(c(OC)cc3CCN1C)Oc1c(OC)c(OC)cc3c1[C@H](C2)N(C)CC3 [Tetran-drine]
- Cell viability (%) (Vero cells; 0.625 μM): 102.48%

SMILES: CNc1ccc2oc(C[C@H]3O[C@@]4(CC[C@H]3C)O[C@H]([C@H](C)C(=O)c3ccc[nH]3)[C@H](C)C[C@H]4C)nc2c1C(=O)O [Calci-mycin]
- Cell viability (%) (Vero cells; 20 μM): 87.78%

SMILES: COc1ccc2cc1Oc1ccc(cc1)C[C@H]1c3cc(c(OC)cc3CCN1C)Oc1c(OC)c(OC)cc3c1[C@H](C2)N(C)CC3 [Tetrandrine, Berbaman, 6,6',7, 12-tetramethoxy-2,2'-dimethyl-, (1β)-]
- Huh7 cell viability (%) (Huh7 cells; 0.37 µM): 95.71%
- viability at 0.37 µM (in vitro): 96.2%

SMILES: [N-]=[N+]=CC(=O)OC[C@H](N)C(=O)O [Azaserine]
- Huh7 cell viability (%) (Huh7 cells; 10 µM): 57.42%

— article PMC10541190 (The Journal of Clinical Investigation, 2023)
